Laboratory results taken from ChEMBL document CHEMBL1649315, “Extended-spectrum cephalosporinase in Acinetobacter baumannii” (Antimicrob Agents Chemother, 2010).

Legend:
[1] = test system: CC1(C)S[C@@H]2[C@H](NC(=O)Cc3ccccc3)C(=O)N2[C@H]1C(=O)O; assay: (§1) Activity of Acinetobacter baumannii ADC-33 beta-lactamase
[2] = test system: CO/N=C(\C(=O)N[C@@H]1C(=O)N2C(C(=O)O)=C(COC(C)=O)CS[C@H]12)c1csc(N)n1; assay: as §1
[3] = test system: CO/N=C(\C(=O)N[C@@H]1C(=O)N2C(C(=O)[O-])=C(C[N+]3(C)CCCC3)CS[C@H]12)c1csc(N)n1; assay: as §1
[4] = test system: C[C@@H](O)[C@H]1C(=O)N2C(C(=O)O)=C(SCCNC=N)C[C@H]12; assay: as §1
[5] = test system: C[C@H]1[C@H](NC(=O)/C(=N\OC(C)(C)C(=O)O)c2csc(N)n2)C(=O)N1S(=O)(=O)O; assay: as §1
[6] = test system: CC(C)(O/N=C(\C(=O)N[C@@H]1C(=O)N2C(C(=O)[O-])=C(C[n+]3ccccc3)CS[C@H]12)c1csc(N)n1)C(=O)O; assay: (§2) Ratio of Kcat to Km for Acinetobacter baumannii ADC-33 beta-lactamase
[7] = test system: CO/N=C(\C(=O)N[C@@H]1C(=O)N2C(C(=O)[O-])=C(C[N+]3(C)CCCC3)CS[C@H]12)c1csc(N)n1; assay: as §2
[8] = test system: C[C@@H](O)[C@H]1C(=O)N2C(C(=O)O)=C(SCCNC=N)C[C@H]12; assay: as §2
[9] = test system: CO/N=C(\C(=O)N[C@@H]1C(=O)N2C(C(=O)O)=C(COC(C)=O)CS[C@H]12)c1csc(N)n1; assay: (§3) Ratio of Kcat to Ki for Acinetobacter baumannii ADC-11 beta-lactamase
[10] = test system: C[C@H]1[C@H](NC(=O)/C(=N\OC(C)(C)C(=O)O)c2csc(N)n2)C(=O)N1S(=O)(=O)O; assay: as §3
[11] = test system: CCN1CCN(C(=O)N[C@@H](C(=O)N[C@@H]2C(=O)N3[C@@H]2SC(C)(C)[C@@H]3C(=O)O)c2ccccc2)C(=O)C1=O; assay: (§4) Activity of Acinetobacter baumannii ADC-11 beta-lactamase
[12] = test system: CO/N=C(\C(=O)N[C@@H]1C(=O)N2C(C(=O)[O-])=C(C[N+]3(C)CCCC3)CS[C@H]12)c1csc(N)n1; assay: as §4
[13] = test system: CO[C@@]1(NC(=O)Cc2cccs2)C(=O)N2C(C(=O)O)=C(COC(N)=O)CS[C@@H]21; assay: as §4
[14] = test system: C[C@@H](O)[C@H]1C(=O)N2C(C(=O)O)=C(SCCNC=N)C[C@H]12; assay: as §4
[15] = test system: O=C(Cc1cccs1)N[C@@H]1C(=O)N2C(C(=O)[O-])=C(C[n+]3ccccc3)CS[C@H]12; assay: as §4
[16] = test system: CC(=O)OCC1=C(C(=O)O)N2C(=O)[C@@H](NC(=O)Cc3cccs3)[C@H]2SC1; assay: (§5) Ratio of Kcat to Km for Acinetobacter baumannii ADC-11 beta-lactamase
[17] = test system: CO/N=C(\C(=O)N[C@@H]1C(=O)N2C(C(=O)[O-])=C(C[N+]3(C)CCCC3)CS[C@H]12)c1csc(N)n1; assay: as §5
[18] = test system: C[C@@H](O)[C@H]1C(=O)N2C(C(=O)O)=C(SCCNC=N)C[C@H]12; assay: as §5
[19] = test system: O=C(Cc1cccs1)N[C@@H]1C(=O)N2C(C(=O)[O-])=C(C[n+]3ccccc3)CS[C@H]12; assay: as §5

Beta-lactamase ADC-33 (Acinetobacter baumannii) (from UniProt B2ZTR6)
kcat [1]: 15 s⁻¹ | kcat [2]: 1 s⁻¹ | Km [3]: 1300 µM | kcat [3]: 10 s⁻¹ | Km [4]: 5 µM | kcat [4]: 0.01 s⁻¹ | kcat [5]: 0.015 s⁻¹ | kcat/Km [6]: 150000 M⁻¹ s⁻¹ | kcat/Km [7]: 10000 M⁻¹ s⁻¹ | kcat/Km [8]: 2000 M⁻¹ s⁻¹

ADC-11 (Acinetobacter baumannii) (from UniProt D6NSM8)
kcat/Km [9]: 100000 M⁻¹ s⁻¹ | kcat/Km [10]: 2e+06 M⁻¹ s⁻¹ | Km [11]: 25 µM | Km [12]: 1800 µM | kcat [12]: 1 s⁻¹ | kcat [13]: 1.5 s⁻¹ | Km [14]: 6 µM | kcat [14]: 0.015 s⁻¹ | Km [15]: 250 µM | kcat/Km [16]: 2.5e+06 M⁻¹ s⁻¹ | kcat/Km [17]: 500 M⁻¹ s⁻¹ | kcat/Km [18]: 2500 M⁻¹ s⁻¹ | kcat/Km [19]: 2.5e+06 M⁻¹ s⁻¹
